# Tests used:
# Dihydrofolate reductase [1] = target: T1, Dihydrofolate reductase (Gallus gallus, UniProt P00378); test: Inhibitory activity against chicken dihydrofolate reductase at pH 7.2.
# T1 sequence (P00378 whole entry): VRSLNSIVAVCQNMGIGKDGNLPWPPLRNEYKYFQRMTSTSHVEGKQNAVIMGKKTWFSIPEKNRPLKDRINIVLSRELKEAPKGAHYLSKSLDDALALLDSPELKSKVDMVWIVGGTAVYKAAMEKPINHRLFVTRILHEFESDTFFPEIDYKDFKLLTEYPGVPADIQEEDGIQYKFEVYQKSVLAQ
# Dihydrofolate reductase [2] = target: T1, Dihydrofolate reductase; test: Inhibitory activity against chicken Dihydrofolate reductase at pH 7.2.
SMILES,Ki (Dihydrofolate reductase [1]) [µM],Ki (Dihydrofolate reductase [2]) [µM]
"Nc1ncc(Cc2cccc(O)c2)c(N)n1 [3-(2,4-Diamino-pyrimidin-5-ylmethyl)-phenol]",135,–
Nc1ncc(Cc2ccc(Br)cc2)c(N)n1,16.2,–
COCc1cccc(Cc2cnc(N)nc2N)c1,42.7,–
Nc1ncc(Cc2ccc(Cl)cc2)c(N)n1,14.8,–
CC(=O)Nc1ccc(Cc2cnc(N)nc2N)cc1[N+](=O)[O-],45.7,–
CCCCOc1ccc(Cc2cnc(N)nc2N)cc1,21.4,–
Nc1ncc(Cc2cccc(C(F)(F)F)c2)c(N)n1,12,–
CS(=O)(=O)Oc1cccc(Cc2cnc(N)nc2N)c1,46.8,–
COCCOc1ccc(Cc2cnc(N)nc2N)cc1,–,55
Nc1ncc(Cc2cc(CO)cc(CO)c2)c(N)n1,589,–
Cc1ccc(Cc2cnc(N)nc2N)cc1,27.5,–
Nc1ncc(Cc2cccc(CO)c2)c(N)n1,49,–
NC(=O)COc1cccc(Cc2cnc(N)nc2N)c1,–,53.7
CCCCCCOc1ccc(Cc2cnc(N)nc2N)cc1,–,19.5
COCCOc1ccc(Cc2cnc(N)nc2N)cc1OCCOC,–,123
Nc1ncc(Cc2ccc(O)c(O)c2)c(N)n1,257,–
Nc1ccc(Cc2cnc(N)nc2N)cc1,186,–
Nc1ncc(Cc2cccc(Br)c2)c(N)n1,9.33,–

# — BindingDB's records for doi:10.1021/jm00346a020 (1982)
